# Literature values as cited in paper PMC7765920 (Molecules, 2020).
# Molecular target: T1, GST-DYRK1A-ΔC (amino acids 1–499 of rat DYRK1A) (Rattus norvegicus, UniProt Q63470)
# T1 construct: containing amino acids 1–499 of rat DYRK1A; made in house; host or cells: E. coli
# Set-up: method as in PMID 26192590
# Conditions: 95% confidence intervals in parentheses; cited from earlier work
smiles,measurement,value
COc1ccc2c(c1)[nH]c1c(C)nccc12 [harmine],IC50,33 to 80 nM
